# Antibody variant affinities, Ab-14 heavy chain, assay B

From the AlphaSeq antibody data of Li et al. 2023 (doi:10.1038/s41467-023-39022-2), copy in the FLAb collection.

Target: peptide PDVDLGDISGINAS, taken from heptad repeat 2 (HR2) of SARS-CoV-2 spike.

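Phage display of a naive human antibody library on the peptide gave the parent. The variants were designed computationally from a first round of random CDR variants and then made and measured. Their group label is 14H_En_HC (En: ensemble of fine-tuned language models; HC: hill climbing; a sequence that several methods proposed may carry one label only). The assay is AlphaSeq: two haploid yeast populations carry antibody and antigen on their surface. After mating in shaken culture at 30 °C for 16 h, diploids were selected and their barcode pairs sequenced. The ratio of observed to expected reads was calibrated, replicate by replicate, on BCL2-family standards whose Kd was known from biolayer interferometry. Each pool was mated in six replicate cultures.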

Ab-14 is the parent antibody, in scFv form: VH, then a (GGGGS)3 linker, then VL. The light chain is unchanged in all variants.
VH: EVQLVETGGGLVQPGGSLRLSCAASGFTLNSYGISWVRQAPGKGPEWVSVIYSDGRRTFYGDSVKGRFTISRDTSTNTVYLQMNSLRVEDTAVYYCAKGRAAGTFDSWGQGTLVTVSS
VL: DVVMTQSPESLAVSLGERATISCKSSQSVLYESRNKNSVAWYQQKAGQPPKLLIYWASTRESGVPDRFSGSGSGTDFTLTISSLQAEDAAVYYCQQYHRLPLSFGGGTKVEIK

Variants are written as CDR1, CDR2 and CDR3 of the heavy chain (limits as in the source). Parent: GFTLNSYGIS, VIYSDGRRTFYGDSVK, GRAAGTFDS.
Affinities are written as log10 Kd with Kd in nM; a lower number is a better binder.
Where no diploid with the target was found in that replicate, the entry reads "nd": below detection, most likely a poor binder, though not proof of it.
The range of this assay differs from that of the first round, and the authors advise against merging the two.
Nonspecific signal, from three strains lacking the peptide, appeared in 1% of pairings of all heavy chain designs, centred on 2.08 (5% of these signals below 0.84); values are not corrected for it. Also given: how often the same scFv was detected with the empty control strains, with their mean in brackets.
In the paper, a design with two or fewer of six values counts as a poor binder.

| CDR-H1 | CDR-H2 | CDR-H3 | replicates, log10 nM | empty controls |
|---|---|---|---|---|
| GFDLNEYGIS | VIYADGSRTFYSDSVK | GETAGTFDV | 0.02 / 0.35 / -0.20 / -0.26 / -0.07 / -0.14 | 0/18 |
| GFNLNEYGIS | VIYADGRRKMYADSVK | GNTAGTFDT | -0.42 / -0.31 / -0.83 / -0.87 / -0.75 / -0.84 | 0/18 |
| GFDINEYGIS | VIYADGKRTAYADSVK | GEAAGTFDS | nd / 1.74 / nd / nd / 0.09 / 1.01 | 0/18 |
| GFDLNEYGIS | VIYADGRRTFYADNVK | GEVAGTFIV | nd / 0.76 / nd / 0.65 / 3.06 / nd | 0/18 |
| GFDLNEYGIS | VIYADGRRTAYADSVK | GHVAGTFVS | -0.14 / -0.40 / -0.53 / -0.49 / -0.42 / -0.03 | 0/18 |
| GFDLNEYGIS | VIYADGRRTFYADSVK | GNVAGTFFL | -0.03 / -0.07 / -0.15 / -0.15 / -0.11 / -0.08 | 0/18 |
| GFDLEEYGIS | VIYADGRRTFYSDSVK | GEVAGTFDS | -0.63 / -0.89 / -0.96 / -1.01 / -0.86 / -0.48 | 0/18 |
| GFDLNEYGIS | VIYADGRRTFYSDSVK | GETGGTFDE | 0.52 / 0.75 / 0.55 / 0.14 / 0.34 / 0.74 | 0/18 |
| GFDLNEYGIS | VIYADGMRTFYADSVK | GEAAGTFDS | -0.89 / -0.63 / -0.65 / 0.21 / -0.08 / -0.26 | 0/18 |
| GFDLNEYGIS | VIYADGVRTFYADSVK | GEIAGTFDV | 0.02 / -0.10 / 0.39 / -0.13 / -0.50 / 0.34 | 0/18 |
| GFDIDEYGIS | VIYADGMRTAYTDSVK | GEAAGTFDA | -0.67 / -0.30 / -1.16 / -1.08 / -1.58 / -0.61 | 0/18 |
| GFDLNDYGIS | VIYADGRRTFYADSVK | GEVAGTFDS | -0.07 / -0.52 / -0.68 / -0.49 / -0.52 / -0.50 | 0/18 |
| GFDLNEYGIS | VIYADGVRTFYVDSVK | GETAGTFDL | 0.26 / 0.44 / 1.05 / 0.23 / 0.69 / 0.63 | 0/18 |
| GFDLNEYGIS | VIYADGRRTQYIDSVK | GNVAGTFDQ | -0.15 / -0.04 / 0.00 / 0.71 / -0.26 / 0.05 | 0/18 |
| GFDLNEYGIS | VIYADGRRTFYTDSVK | GEEAGTFDS | -0.22 / -0.66 / -0.73 / -0.71 / -0.77 / -0.54 | 0/18 |
| GFDLNEYGIS | VIYADGRRTAYIDSVK | GNQAGTFDQ | 0.58 / -0.04 / -0.10 / -0.36 / -0.58 / -0.22 | 0/18 |
| GFNLDEYGIS | VIYADGRRTFYQDSVK | GEGAGTFDV | -0.02 / 0.01 / -0.14 / -0.34 / 0.13 / 0.17 | 2/18 (2.72) |
| GFDLNEYGIS | VIYADGRRTAYTDSVK | GNQAGTFDQ | -0.50 / -0.57 / -0.58 / -0.59 / -0.78 / -0.53 | 0/18 |
| GFDLNEYGIS | VIYADGRRTFYADSVK | GNAAGTFIM | nd / nd / nd / 1.97 / 2.96 / nd | 0/18 |
| GFDLNEYGIS | VIYADGMRTHYTDSVK | GNEAGTFDI | 1.10 / 0.62 / 1.76 / 0.39 / 0.71 / 0.80 | 2/18 (2.29) |
| GFDLDEYGIS | VIYADGKRTFYIDSVK | GETAGTFDV | 0.01 / -0.02 / 0.24 / -0.24 / 0.11 / 0.11 | 0/18 |
| GFDLNEYGIS | VIYADGKRTAYSDSVK | GEAGGTFDV | -0.10 / -0.11 / -0.15 / -0.20 / -0.05 / 0.01 | 0/18 |
| GFDLNEYGIS | VIYADGLRTSYDDSVK | GQTAGTFDQ | -0.15 / -0.21 / 0.08 / -0.05 / -0.15 / 0.42 | 0/18 |
| GFDLNEYGIS | VIYADGMRTFYSDSVK | GEVAGTFDQ | -0.64 / -0.69 / -0.71 / -1.01 / -0.49 / -0.66 | 0/18 |
| GFNLNEYGIS | VIYADGRRKFYSDSVK | GEAAGTFDV | 0.35 / 0.46 / -0.68 / -0.76 / 0.23 / -0.13 | 0/18 |
| GFDLNEYGIS | VIYADGVRTAYSDSVK | GETGGTFDS | 0.35 / 0.04 / -0.49 / 0.15 / 0.12 / 0.26 | 0/18 |
| GFDLNEYGIS | VIYADGKRTFYADSVK | GQVAGTFDM | -0.35 / -0.36 / -0.77 / -0.57 / -0.44 / 0.51 | 0/18 |
| GFDLNEYGIS | VIYADGRRTAYSDSVK | GENAGTFVQ | 0.62 / 2.02 / nd / nd / nd / nd | 1/18 (1.41) |
| GFDLNEYGIS | VIYADGRRTAYADSVK | GEAAGTFDF | -0.21 / -0.34 / -0.37 / -0.44 / -0.34 / 0.06 | 0/18 |
| GFDLNEYGIS | VIYADGRRTAYSDSVK | GGNAGSFDS | -0.10 / 0.04 / 0.12 / 0.51 / 0.01 / -0.16 | 0/18 |
| GFDLDEYGIS | VIYADGMRTFYADSVK | GNIAGTFDK | -0.43 / -0.52 / -0.69 / -0.89 / -0.31 / -0.61 | 0/18 |
| GFDLNEYGIS | VIYADGRRTSYKDSVK | GETAGTFNV | nd / nd / -1.50 / nd / nd / -0.56 | 0/18 |
| GFDLNDYGIS | VIYADGRRTAYIDSVK | GEVAGTFDT | -0.14 / -0.19 / -0.38 / -0.37 / -0.44 / -0.25 | 0/18 |
| GFDLNEYGIS | VIYADGRRTFYADSVK | GQLAGTFDN | 0.17 / -0.21 / -0.45 / -0.45 / -0.76 / -0.03 | 0/18 |
| GFDLNEYGIS | VIYADGRRTFYADSVK | GEYAGTFDI | -0.35 / 0.06 / -0.04 / -0.59 / -0.26 / 0.04 | 0/18 |
| GFDLNEYGIS | VIYADGMRTHYTDSVK | GNEAGTFDK | 0.49 / 0.47 / 0.34 / 0.36 / 0.57 / 0.61 | 0/18 |
| GFDLNEYGIS | VIYADGKRTFYTDSVK | GEHAGTFDV | -0.51 / -0.55 / -0.56 / -0.52 / -0.47 / -0.62 | 1/18 (2.12) |
| GFDLNEYGIS | VIYADGQRTFYADSVK | GQAAGTFDI | nd / nd / nd / nd / nd / nd | 0/18 |
| GFNLDEYGIS | VIYADGRRTFYADSVK | GEHAGTFDT | -1.03 / -0.72 / -0.75 / -0.95 / -1.00 / -0.42 | 0/18 |
| GFNLDEYGIS | VIYADGRRTFYADSVK | GNVAGTFVQ | -0.47 / -0.51 / -0.40 / -0.30 / -0.60 / -0.07 | 0/18 |
| GFDLNEYGIS | VIYADGRRTFYTDSVK | GQLAGTFDV | -0.40 / -0.24 / -0.44 / -0.58 / -0.50 / -0.33 | 0/18 |

Top 7 of the variants detected in all replicates, tightest first:

| CDR-H1 | CDR-H2 | CDR-H3 | replicates, log10 nM | empty controls |
|---|---|---|---|---|
| GFDIDEYGIS | VIYADGMRTAYTDSVK | GEAAGTFDA | -0.67 / -0.30 / -1.16 / -1.08 / -1.58 / -0.61 | 0/18 |
| GFNLDEYGIS | VIYADGRRTFYADSVK | GEHAGTFDT | -1.03 / -0.72 / -0.75 / -0.95 / -1.00 / -0.42 | 0/18 |
| GFDLEEYGIS | VIYADGRRTFYSDSVK | GEVAGTFDS | -0.63 / -0.89 / -0.96 / -1.01 / -0.86 / -0.48 | 0/18 |
| GFDLNEYGIS | VIYADGMRTFYSDSVK | GEVAGTFDQ | -0.64 / -0.69 / -0.71 / -1.01 / -0.49 / -0.66 | 0/18 |
| GFNLNEYGIS | VIYADGRRKMYADSVK | GNTAGTFDT | -0.42 / -0.31 / -0.83 / -0.87 / -0.75 / -0.84 | 0/18 |
| GFDLNEYGIS | VIYADGRRTFYTDSVK | GEEAGTFDS | -0.22 / -0.66 / -0.73 / -0.71 / -0.77 / -0.54 | 0/18 |
| GFDLNEYGIS | VIYADGRRTAYTDSVK | GNQAGTFDQ | -0.50 / -0.57 / -0.58 / -0.59 / -0.78 / -0.53 | 0/18 |